Apparent affinities of Ab-14 variants for a coronavirus HR2 peptide

The measurements come from Li et al. 2023 (doi:10.1038/s41467-023-39022-2) through the FLAb antibody collection.

Target: peptide PDVDLGDISGINAS, taken from heptad repeat 2 (HR2) of SARS-CoV-2 spike.

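Designed CDR sequences, proposed from the first random library and measured here. Group labels follow the data file (Ctrl: baseline library sampled from a position-specific scoring matrix, with some repeated check sequences; GPLM: also part of the Gaussian process libraries; HC: hill climbing; Gibbs: Gibbs sampling; a sequence that several methods proposed may carry one label only). In AlphaSeq, yeast of one mating type display the scFv and yeast of the other type display the target. Binding brings cells together so that they mate, and sequencing counts the barcode pairs among the diploids. A regression on co-assayed BCL2-family reference pairs converts the normalised counts of each replicate to an apparent Kd. The assay was run in six technical replicates.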

Parent: Ab-14, a human scFv built as VH, a (GGGGS)3 linker, VL. Only the CDRs of the heavy chain vary.
VH: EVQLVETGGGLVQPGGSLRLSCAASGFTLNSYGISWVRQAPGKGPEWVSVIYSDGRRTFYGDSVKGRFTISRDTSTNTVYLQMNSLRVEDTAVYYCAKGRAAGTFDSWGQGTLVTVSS
VL: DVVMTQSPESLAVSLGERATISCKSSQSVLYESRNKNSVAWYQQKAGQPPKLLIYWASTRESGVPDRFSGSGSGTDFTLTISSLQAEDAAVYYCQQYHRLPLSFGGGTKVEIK

Positions count from residue 1 of the parent VH; G99A puts A in place of G. Values are log10 of the apparent Kd in nM; lower means stronger binding. "nd" means that the variant was in the library but no mating with the target was seen in that replicate; the authors take this as a sign of poor binding, and no number exists. As a blank, each scFv also met three strains without target: over all heavy chain designs, 1% of these pairings were detected, typically at 2.08 and seldom below 0.84. Also given: how often the same scFv was detected with the empty control strains. The authors' rule: three or more of the six replicates give a measured affinity, fewer mean a poor binder. A sequence that the file lists under several names has all its replicates listed entry by entry, parted by semicolons. A sequence measured in both rounds can read differently, since the two assays cover different ranges.

G99A/R100Q/A101K [Ctrl]: 0.19, nd, 0.05, 0.01, 0.25, nd (controls 0 of 18).
S31Q/R57D/A101E/F105N [Ctrl]: nd, nd, nd, nd, nd, nd (controls 0 of 18).
T28D/S31D/D106H [Ctrl]: nd, nd, nd, nd, nd, nd (controls 0 of 18).
D106N/S107T [Ctrl]: nd, nd, nd, nd, nd, nd (controls 0 of 18).
R100L [Ctrl]: nd, nd, nd, nd, nd, nd (controls 0 of 18).
N30L/G61Q/D106E [Ctrl]: nd, nd, nd, nd, 2.66, nd (controls 0 of 18).
T28D/R56I/R100Y [Ctrl]: 0.85, 0.22, 0.97, 0.43, 1.02, 1.05 (controls 1 of 18).
F27T/N30E/R56E/T58E/F59A/F105K/S107H [Ctrl]: nd, nd, 1.14, nd, 1.27, nd (controls 0 of 18).
S31D/F59W/R100E [Ctrl]: nd, nd, nd, nd, 0.86, nd (controls 0 of 18).
T28W/S31K/A101W [Ctrl]: nd, nd, nd, nd, 2.67, nd (controls 1 of 18).
N30D/R56C/R100Q/A101I [Ctrl]: 1.71, 2.27, 1.53, 1.38, 1.53, 2.24 (controls 0 of 18).
R56I/G61K/S107V [Ctrl]: 1.52, nd, nd, nd, nd, nd (controls 0 of 18).
R100V/D106L [Ctrl]: nd, nd, nd, nd, nd, nd (controls 0 of 18).
N30P/R56K/G61E/S63D/K65V [Ctrl]: nd, nd, nd, nd, nd, nd (controls 0 of 18).
N30E/I34G/F59S/G61L/A101E/A102P [Ctrl]: nd, nd, nd, nd, nd, nd (controls 0 of 18).
T28E/S31Q/R56L/F59Q [Ctrl]: 1.54, 1.12, 0.59, 1.15, 1.20, 1.33 (controls 0 of 18).
S31K/G61S/A102T/T104Y [Ctrl]: 1.61, nd, nd, nd, nd, 1.94 (controls 0 of 18).
T28A/N30G [Ctrl]: 0.74, 2.49, nd, nd, 0.92, nd (controls 1 of 18).
R56K/G61S/A101E [Ctrl+GPLM_Gibbs]: 0.01, 0.09, -0.11, -0.07, -0.17, 0.09; -0.12, -0.28, -0.47, -0.30, -0.54, -0.25 (controls 2 of 36).
S35Q/S107C [Ctrl]: nd, nd, nd, nd, nd, nd (controls 0 of 18).
S31M/R56K/F59E/T104C/D106C/S107Q [Ctrl]: nd, nd, nd, nd, nd, nd (controls 0 of 18).
I34V/A102V [Ctrl]: nd, nd, nd, nd, nd, nd (controls 0 of 18).
T28S/F59A/S107D [Ctrl]: 0.91, 0.91, 0.46, 0.55, 0.52, 0.50 (controls 0 of 18).
L29I/G61N/R100N/A101I/F105M [Ctrl]: 1.73, 0.96, 2.10, 1.02, 0.76, 1.24 (controls 0 of 18).
R56F/A101V [Ctrl]: nd, 1.85, 1.28, 1.39, 1.96, 1.10 (controls 0 of 18).
T28W/S35Q/A101E [Ctrl]: nd, nd, nd, nd, nd, nd (controls 0 of 18).
T28P/S53A/A102K [Ctrl]: nd, nd, nd, nd, nd, nd (controls 2 of 18).
S31E/Y52W/G103W/D106H [Ctrl]: nd, nd, nd, nd, nd, nd (controls 0 of 18).
T28S/S31D/I34G/R100S/A101V/A102S [Ctrl]: nd, nd, nd, nd, nd, nd (controls 0 of 18).
T58C/G61A/S107H [Ctrl]: 1.77, 2.28, 4.12, nd, 1.15, 2.06 (controls 0 of 18).
T58V/G61I/S107D [Ctrl]: nd, nd, nd, nd, nd, nd (controls 0 of 18).
T28H/N30Q [Ctrl]: 1.68, 1.33, 0.21, 0.53, 1.33, 0.90 (controls 0 of 18).
F59A/G61E/G99D/R100K/T104P [Ctrl]: nd, nd, 2.86, 4.84, nd, nd (controls 0 of 18).
G61N/A101L [Ctrl]: nd, 2.06, 2.41, 2.24, 3.01, 2.29 (controls 0 of 18).
F27S/G61L [Ctrl]: nd, nd, nd, nd, nd, nd (controls 0 of 18).
S31E/G99A [Ctrl]: nd, nd, 3.38, nd, 3.61, nd (controls 2 of 18).
L29I/S31E/R56L [Ctrl]: 0.73, 0.82, 0.76, 0.72, 0.63, 1.03 (controls 0 of 18).
N30E/S31E [Ctrl+GPLM_HC]: nd, nd, nd, nd, nd, nd; 0.43, 0.07, 0.38, 1.67, 0.61, 0.17 (controls 0 of 36).
F27T/Y32H/T58E/A101K/G103T/T104Y [Ctrl]: nd, nd, nd, nd, nd, nd (controls 0 of 18).
S63Q/R100W/A101E [Ctrl]: nd, nd, nd, nd, nd, nd (controls 0 of 18).
F105I [Ctrl]: nd, nd, nd, nd, nd, nd (controls 1 of 18).
S31N/A101N [Ctrl]: 1.78, 1.27, 2.66, 1.75, 1.26, nd (controls 0 of 18).
R56I/F59M/G61I/K65R/R100E/D106F [Ctrl]: nd, nd, nd, nd, nd, nd (controls 0 of 18).

The last 6 entries again:

{"changes": "N30E/S31E", "group": "Ctrl+GPLM_HC", "log10 Kd (nM) by replicate": "nd, nd, nd, nd, nd, nd; 0.43, 0.07, 0.38, 1.67, 0.61, 0.17", "empty controls": "0/36"}
{"changes": "F27T/Y32H/T58E/A101K/G103T/T104Y", "group": "Ctrl", "log10 Kd (nM) by replicate": "nd, nd, nd, nd, nd, nd", "empty controls": "0/18"}
{"changes": "S63Q/R100W/A101E", "group": "Ctrl", "log10 Kd (nM) by replicate": "nd, nd, nd, nd, nd, nd", "empty controls": "0/18"}
{"changes": "F105I", "group": "Ctrl", "log10 Kd (nM) by replicate": "nd, nd, nd, nd, nd, nd", "empty controls": "1/18"}
{"changes": "S31N/A101N", "group": "Ctrl", "log10 Kd (nM) by replicate": "1.78, 1.27, 2.66, 1.75, 1.26, nd", "empty controls": "0/18"}
{"changes": "R56I/F59M/G61I/K65R/R100E/D106F", "group": "Ctrl", "log10 Kd (nM) by replicate": "nd, nd, nd, nd, nd, nd", "empty controls": "0/18"}